Assay results from patent publication US9169209B2, “Compounds and compositions for the inhibition of NAMPT” (FORMA TM, LLC, priority 2011, dated 2015).

By UniProt entry, the sequences of proteins in these tests, tags left out. Where a name states a change or a piece, a line headed by the entry shows the natural chain unless it says otherwise.
UniProt P43490: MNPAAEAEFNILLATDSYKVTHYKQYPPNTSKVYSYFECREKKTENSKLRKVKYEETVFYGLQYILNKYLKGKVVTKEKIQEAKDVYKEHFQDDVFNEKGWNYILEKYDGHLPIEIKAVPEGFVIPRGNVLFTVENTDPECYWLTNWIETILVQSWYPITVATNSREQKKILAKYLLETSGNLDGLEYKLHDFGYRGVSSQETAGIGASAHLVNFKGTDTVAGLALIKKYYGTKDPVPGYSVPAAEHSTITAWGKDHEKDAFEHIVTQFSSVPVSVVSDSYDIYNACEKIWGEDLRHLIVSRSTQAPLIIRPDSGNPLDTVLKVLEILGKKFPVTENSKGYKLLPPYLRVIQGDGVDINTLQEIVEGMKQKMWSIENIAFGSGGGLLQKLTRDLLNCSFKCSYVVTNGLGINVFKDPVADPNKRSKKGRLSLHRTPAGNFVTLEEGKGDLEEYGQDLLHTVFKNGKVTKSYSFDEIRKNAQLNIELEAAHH

Molecular target: NAMPT (Homo sapiens (Human), UniProt P43490)
Experiment: Biochemical Inhibition Assay (NAMPT enzymatic reaction, NMN quantified by mass spectrometry)
Conditions: recombinant His-tagged NAMPT, 33 nM; 1 μM NAM; read-out: Biochem IC50
Method: Recombinant His-tagged NAMPT was produced in E. coli cells, purified over a Ni column, and further purified over a size-exclusion column by XTAL Biostructures.
The NAMPT enzymatic reactions were carried out in Buffer A (50 mM Hepes pH 7.5, 50 mM NaCl, 5 mM MgCl2, and 1 mM THP) in 96-well V-bottom plates. The compound titrations were performed in a separate dilution plate by serially diluting the compounds in DMSO to make a 100× stock. […] The compound and enzyme mix was incubated for 15 minutes at room temperature, then 10 μL of 10× substrate and co-factors in Buffer A were added to the test well to make a final concentration of 1 μM NAM, 100 μM 5-Phospho-D-ribose 1-diphosphate (PRPP), and 2.5 mM Adenosine 5′-triphosphate (ATP). The reaction was allowed to proceed for 30 minutes at room temperature, then was quenched with the addition of 11 μL of a solution of formic acid and L-Cystathionine to make a final concentration of 1% formic acid and 10 μM L-Cystathionine. Background and signal strength was determined by addition (or non-addition) of a serial dilution of NMN to a pre-quenched enzyme and cofactor mix.
A mass spectrometry-based assay was used to measure the NAMPT reaction product (NMN) and the internal control (L-Cystathionine). NMN and L-Cystathionine were detected using the services of Biocius Lifesciences with the RapidFire system. In short, the NMN and L-Cystathionine are bound to a graphitic carbon cartridge in 0.1% formic acid, eluted in 30% acetonitrile buffer, and injected into a Sciex 4000 mass spectrometer. The components of the sample were ionized with electrospray ionization and the positive ions were detected. […] The fragments are quantified and the analyzed by the following method.
First the NMN signal is normalized to the L-Cystathionine signal by dividing the NMN signal by the L-Cystathionine signal for each well. The signal from the background wells are averaged and subtracted from the test plates. […]
IC50s are Determined Using Excel and this Formula. […]

Compound | IC50 [nM]
COc1ccc2cc(S(=O)(=O)c3ccc(NC(=O)/C=C/c4cccnc4)cc3)ccc2c1 [(2E)-N-[4-(6-methoxynaphthalene-2-sulfonyl)phenyl]-3-(pyridin-3-yl)prop-2-enamide] | 5.9
Cc1ccc(S(=O)(=O)c2ccc(NC(=O)/C=C/c3cccnc3)cc2)cn1 [(2E)-N-[4-(6-methylpyridine-3-sulfonyl)phenyl]-3-(pyridin-3-yl)prop-2-enamide] | 37.4
Cc1cccc(S(=O)(=O)c2ccc(NC(=O)/C=C/c3cccnc3)cc2)c1 [(2E)-N-{4-[(3-methylbenzene)sulfonyl]phenyl}-3-(pyridin-3-yl)prop-2-enamide] | 32.3
